Assay results published in PMC9306553 (Angewandte Chemie (International Ed. in English), 2022).

Key:
Assay in all cases: cell-based
CCR9 [1] = target: T1, CCR9 (Homo sapiens, UniProt P51686); details: tracer 3a 120 nM, live HEK293T cells expressing CCR9_Nluc
T1 sequence (P51686 1-357 isoform P51686-2): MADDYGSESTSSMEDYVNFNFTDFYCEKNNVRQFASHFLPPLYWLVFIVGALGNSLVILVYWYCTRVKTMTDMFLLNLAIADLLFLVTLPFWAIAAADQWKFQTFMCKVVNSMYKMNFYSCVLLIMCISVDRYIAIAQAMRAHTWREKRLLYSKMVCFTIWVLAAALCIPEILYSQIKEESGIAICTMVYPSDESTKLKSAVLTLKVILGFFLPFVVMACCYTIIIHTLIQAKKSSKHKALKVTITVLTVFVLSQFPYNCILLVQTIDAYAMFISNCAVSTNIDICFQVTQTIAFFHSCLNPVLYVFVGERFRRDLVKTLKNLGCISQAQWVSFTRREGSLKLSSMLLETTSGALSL

CCR9 [2] = target: T2, CCR9 (Homo sapiens, UniProt P51686); details: IC50 β-arrestin2 recruitment, HEK293T cells, stimulated with CCL25 31.6 nM
T2 sequence (P51686 1-369): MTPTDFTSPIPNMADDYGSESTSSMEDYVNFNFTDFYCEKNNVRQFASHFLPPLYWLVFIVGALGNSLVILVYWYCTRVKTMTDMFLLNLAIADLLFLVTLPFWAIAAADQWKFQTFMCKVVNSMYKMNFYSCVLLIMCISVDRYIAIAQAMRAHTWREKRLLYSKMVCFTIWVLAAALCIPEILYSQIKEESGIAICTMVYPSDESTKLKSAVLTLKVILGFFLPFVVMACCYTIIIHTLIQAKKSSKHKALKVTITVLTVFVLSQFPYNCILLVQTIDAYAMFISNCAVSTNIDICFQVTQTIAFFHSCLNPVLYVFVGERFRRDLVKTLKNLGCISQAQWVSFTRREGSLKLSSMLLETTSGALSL

CCR9 [3] = target: T1, CCR9; details: HEK293T cells, stimulated with CCL25 31.6 nM

Ki (CCR9 [1]; Ki NanoBRET (in cells)): 1.91 nM
Ki (CCR9 [1]; pKi NanoBRET (in cells), mean±SEM): 1.38 nM
IC50 (CCR9 [2]): 1.93 nM
IC50 (CCR9 [3]; IC50 Gαo activation): 1.92 nM
IC50 (CCR9 [3]; pIC50 Gαo activation, mean±SEM): 1.91 nM
Compound: CC(C)(C)c1ccc(S(=O)(=O)Nc2ccc(Cl)cc2-c2cncnc2N)cc1 [compound 12]
